# From ChEMBL document CHEMBL1777757, “Triazoloquinazolines as a novel class of phosphodiesterase 10A (PDE10A) inhibitors” (Bioorg Med Chem Lett, 2011)
# Protein sequences, listed by entry. Tags and fused reporters are not part of them. Lines headed by an entry give the natural chain unless they say otherwise; changes in a name come on top.
# UniProt Q9Y233: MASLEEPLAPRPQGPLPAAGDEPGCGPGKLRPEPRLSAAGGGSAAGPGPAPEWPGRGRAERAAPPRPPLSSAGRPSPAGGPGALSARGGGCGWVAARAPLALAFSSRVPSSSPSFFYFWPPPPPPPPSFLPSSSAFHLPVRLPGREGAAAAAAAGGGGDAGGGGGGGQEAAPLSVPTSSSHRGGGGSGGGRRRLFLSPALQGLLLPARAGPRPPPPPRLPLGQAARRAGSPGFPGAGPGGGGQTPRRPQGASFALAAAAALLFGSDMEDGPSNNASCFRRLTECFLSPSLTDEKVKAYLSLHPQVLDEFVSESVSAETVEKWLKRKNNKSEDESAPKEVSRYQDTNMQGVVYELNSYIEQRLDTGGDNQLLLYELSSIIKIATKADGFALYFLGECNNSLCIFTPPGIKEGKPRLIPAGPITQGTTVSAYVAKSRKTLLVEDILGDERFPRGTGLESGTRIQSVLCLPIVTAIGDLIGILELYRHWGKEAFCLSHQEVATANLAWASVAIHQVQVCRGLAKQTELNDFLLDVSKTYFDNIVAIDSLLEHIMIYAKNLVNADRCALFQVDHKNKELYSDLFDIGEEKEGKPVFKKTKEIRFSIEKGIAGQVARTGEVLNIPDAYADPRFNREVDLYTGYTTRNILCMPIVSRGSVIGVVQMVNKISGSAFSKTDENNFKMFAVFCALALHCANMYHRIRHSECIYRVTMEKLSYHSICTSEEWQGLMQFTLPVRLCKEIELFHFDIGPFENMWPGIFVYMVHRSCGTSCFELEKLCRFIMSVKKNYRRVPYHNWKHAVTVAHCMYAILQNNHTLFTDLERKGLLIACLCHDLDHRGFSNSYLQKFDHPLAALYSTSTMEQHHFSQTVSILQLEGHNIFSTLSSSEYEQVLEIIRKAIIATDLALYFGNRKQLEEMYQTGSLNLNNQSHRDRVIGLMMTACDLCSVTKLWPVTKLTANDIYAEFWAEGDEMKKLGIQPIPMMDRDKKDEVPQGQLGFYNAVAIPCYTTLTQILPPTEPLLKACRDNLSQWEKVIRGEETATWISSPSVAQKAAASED
# Molecular target: cAMP and cAMP-inhibited cGMP 3',5'-cyclic phosphodiesterase 10A (Homo sapiens, UniProt Q9Y233)
# Experiment: Inhibition of PDE10A
smiles,measurement,value
COc1ccc(Cc2nccc3cc(OC)c(OC)cc23)cc1OC [PAPAVERINE],IC50,210 nM
